# Laboratory results reported in ChEMBL document CHEMBL3585337, “Selective inhibition of prolyl 4-hydroxylases by bipyridinedicarboxylates” (Bioorg Med Chem, 2015).
# Chains of the proteins cited; added tags and fusions are not shown. Lines headed by an entry give the natural chain unless they say otherwise; changes in a name come on top.
# UniProt P13674: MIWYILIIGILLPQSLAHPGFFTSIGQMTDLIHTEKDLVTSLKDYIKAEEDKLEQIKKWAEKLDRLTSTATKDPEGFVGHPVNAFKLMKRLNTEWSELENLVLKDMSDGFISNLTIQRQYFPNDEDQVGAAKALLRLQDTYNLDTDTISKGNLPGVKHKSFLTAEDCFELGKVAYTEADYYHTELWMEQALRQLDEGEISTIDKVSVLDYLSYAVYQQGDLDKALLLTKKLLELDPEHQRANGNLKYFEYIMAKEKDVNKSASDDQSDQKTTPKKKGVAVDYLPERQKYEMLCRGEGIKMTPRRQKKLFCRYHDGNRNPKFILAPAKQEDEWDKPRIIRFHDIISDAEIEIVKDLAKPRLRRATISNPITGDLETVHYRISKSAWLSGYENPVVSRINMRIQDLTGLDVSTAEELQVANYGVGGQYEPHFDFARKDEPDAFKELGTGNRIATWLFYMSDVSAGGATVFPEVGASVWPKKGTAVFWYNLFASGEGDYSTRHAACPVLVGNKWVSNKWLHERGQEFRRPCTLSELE
# Calls of active or inactive are those of the source. The calls are words filed in the database; no cut-off is given here.
# Target: Prolyl 4-hydroxylase subunit alpha-1 (Homo sapiens, UniProt P13674)
# Experiment: Competitive inhibition of human recombinant CP4H1 expressed in Escherichia coli Origami B(DE3) pre-incubated for 2 mins followed by alpha-ketoglutarate addition using dansylGlyProProGlyOEt substrate in Tris-HCl buffer at pH 7.8 at 30 degC by HPLC based Lineweaver-Burk analysis
smiles,measurement,value
O=C(O)c1ccc(-c2ccc(C(=O)O)cn2)nc1,inhibition,Active
